What is called MIC is the lowest concentration found to suppress growth. Low readings indicate greater potency, high ones weaker potency.

In this assay the test system is Escherichia coli. Put plainly: Antimicrobial activity against Escherichia coli DH5[alpha]. The format is functional.

The sequence GENTAMICIN displayed a minimum inhibitory concentration (MIC) of 0.5 µg/mL.
